Experimental data reported in US6989435B2, “Compounds and methods to inhibit or augment an inflammatory response” (Cambridge University Technical Services Ltd., priority 1997, dated 2006).

Legend:
[1] = test system: chemokine-induced THP-1 migration (MCP-1, MIP1α, IL8, SDF1α); experiment: Trans-well THP-1 migration assay, across the chemokines tested; format: cell-based, human
Experimental: To determine whether an agent inhibits a chemokine-induced activity, such as macrophage recruitment, varying amounts of the agent are mixed with cells in the presence of a known chemoattractant. […] Chemokine (such as MCP-1, MIP1α, IL8 or SDF-1α), at a concentration known to cause significant migration of THP-1 cells in the trans-well migration assay, is placed in the lower compartment (FIG. 1). […] After incubation, the cells are gently removed from the top of the filter with a pipette, 20 μl of 20 mM EDTA in simple PBS is added into each top well, and incubated for 20 minutes at 4° C. The filter is carefully flushed with media using a gentle flow, and removed. […] The media is carefully aspirated from each well, and the converted dye is solubilized by 20 μl of DMSO. Absorbance of converted dye is measured at a wavelength of 595 nm using an ELISA plate reader. The number of migrated cells in each well is then determined by interpolation of the standard curve (see also Imai et al., J. Biol. Chem., 272, 15036 (1997)). […] The framed filter was aligned with the holes in the corner of the filter frame and placed over the wells. Five×10^4 THP-1 cells in 25 μl of RPMI-1640 culture media were added to the upper compartment. […] Absorbance of converted dye was measured at a wavelength of 595 nm using an ELISA plate reader. […]

[2] = molecular target: T1, Duffy Antigen Receptor for Chemokines (DARC) (Homo sapiens, UniProt Q16570); experiment: DARC binding: competition with 125I-labeled MCP-1 on red blood cells
T1 sequence (Q16570 1-336): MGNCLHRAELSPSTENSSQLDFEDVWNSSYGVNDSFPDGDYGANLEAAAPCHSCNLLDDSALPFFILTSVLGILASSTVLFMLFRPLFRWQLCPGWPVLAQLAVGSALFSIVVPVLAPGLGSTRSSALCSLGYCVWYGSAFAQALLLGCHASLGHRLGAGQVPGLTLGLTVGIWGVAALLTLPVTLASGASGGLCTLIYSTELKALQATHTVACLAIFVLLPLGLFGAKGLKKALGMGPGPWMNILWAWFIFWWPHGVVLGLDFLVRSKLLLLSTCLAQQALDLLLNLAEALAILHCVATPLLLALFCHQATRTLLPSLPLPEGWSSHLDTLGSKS

## CC(C)[C@H](NC(=O)[C@@H](N)Cc1c[nH]c2ccccc12)C(=O)N[C@@H](CCC(N)=O)C(=O)O [WVQ]
[1]; MIP1α, IL8, SDF1α, read-out: ED50s for chemokines other than MCP-1
  IC50: ~1000 nM
[1]; Table 7, average inhibitory ED50 versus SDF1 and IL8 divided by average inhibitory ED50 versus MCP-1 and MIP1α
  CC SPECIFICITY: 1.1
[2]; Table 7, estimated ka for binding to red blood cells divided by average inhibitory ED50 versus each of the chemokines
  DUFFY SELECTIVITY: 24.81
[2]; estimated ka for association with DARC divided by the ED50 for biological activity
  DARC specificity ratio / Duffy selectivity: 10
